Source: patent EP4831188A1, “GLYCYRRHETINIC ACID DERIVATIVE AND USE THEREOF” (dated 2026)

Columns and labels:
[1] = system: guinea pigs; assay: Inhibitory activity assay against ear swelling in guinea pigs (DMSO/ethanol inflammatory agent); settings: topical, 200 µL per ear; test compounds and glycyrrhetinic acid 40 mg/mL in absolute ethanol; hydrocortisone butyrate cream 1 mg/g; 45 min after modeling
Description: • 2.1 Animals: Ordinary grade guinea pigs, weighing about 300 g. • 2.2 Reagents: Inflammatory agent made from 80% dimethyl sulfoxide (DMSO) and 20% absolute ethanol; DMSO; absolute ethanol, analytical grade.
Ordinary grade guinea pigs were randomly divided into groups, with 10 animals in each group, half male and half female. The inner and outer sides of the left and right ears of the guinea pigs were shaved, and 4 points were marked on the medial side of the left ear margin. The thickness of these 4 points on the auricle of the guinea pigs was measured using a vernier caliper, and the average value was obtained as the baseline before administration. The corresponding drugs were applied dropwise to the auricles of the guinea pigs in each test group (Compound 1, Compound 2, Compound 3, Compound 9, Compound 16, Compound 17, Compound 18, Compound 21) and the glycyrrhetinic acid group, with 200 µL per ear. The blank control group and the model group were treated with the corresponding volume of absolute ethanol only. The positive control hydrocortisone butyrate group was treated with an equal volume of hydrocortisone butyrate cream. After 30 min of administration, the drugs were wiped off. The animals in the model group and the test groups were treated with the inflammatory agent on both sides of the left auricle (50 µL per ear). The blank control group was treated with the corresponding volume of normal saline only. At 45 min after modeling, the thickness of these 4 points was measured using a vernier caliper, and the average value was obtained. The difference was calculated as the ear swelling value of the guinea pigs. Inhibition rate of swelling value = (Swelling value of the model group - Swelling value of the sample group) / Swelling value of model group × 100%, wherein the sample group includes each test group, glycyrrhetinic acid group, and positive control hydrocortisone butyrate group.
• Test compounds and glycyrrhetinic acid: Dissolved in absolute ethanol to prepare a solution with a concentration of 40 mg/mL. • Positive control: Commercially available hydrocortisone butyrate cream (from Hubei Heng'an Fulin Pharmaceutical Co., Ltd., specification: 1 mg/g).

[2] = system: SD rats; assay: Radiation dermatitis assay (X-ray, 25 Gy); settings: 100 mg once daily for 28 days, test compounds 0.5% cream, triethanolamine cream 0.67%, hydrocortisone butyrate cream 1 mg/g
Experimental: • 5.1 Animals: SD rats, SPF grade, male, 230-250 g. • 5.2 Equipment: RS 2000·Pro 225 Rad Source X-ray Irradiator; SpectraMax i3 Multifunctional Microplate Reader.
Eighty SD rats were randomly divided into groups, with 10 rats in each group. Except for the blank control group, all rats were subjected to modeling using a Rad Source X-ray irradiator. The hair on the irradiation site was removed 24 hours before irradiation. On the day of irradiation, the rats were anesthetized and received a single X-ray irradiation on the posterior buttock at a dose of 25 Gy, a dose rate of 4 Gy/min, and an irradiation area of 2×2 cm^2. On the second day after irradiation, the test groups (Compound 1, Compound 16, Compound 21) received the corresponding drugs, 100 mg per time, once daily for 28 consecutive days. The blank control group and the model (with matrix) group received the corresponding weight of blank matrix (triethanolamine cream matrix). The positive control group was treated with the corresponding weight of triethanolamine cream or hydrocortisone butyrate cream. At the end of administration, the damaged skin was scored according to erythema/darkening, edema/papules, exudation/crusting, and erosion, with reference to the scoring criteria for atopic dermatitis. After scoring, skin from the damaged site was collected and homogenized, and the content of inflammatory cells in the skin was detected using an ELISA kit. Additional skin was collected, fixed, and then stained with HE, and the number of inflammatory cells was observed.
• Test compounds: The formulations were prepared with reference to triethanolamine cream (test compound concentration: 0.5%). • Positive controls: Commercially available triethanolamine cream (from JOHNSON & JOHNSON SANTE BEAUTE FRANCE, specification: 0.67%); hydrocortisone butyrate cream (from Hubei Heng'an Fulin Pharmaceutical Co., Ltd., specification: 1 mg/g).

[3] = system: HaCaT cells; assay: In vitro inhibition of ROS release assay (8 Gy X-ray, flow cytometry); settings: 24 h after 8 Gy irradiation; Compound 16 0.5 µM, triethanolamine 0.5 µM, hydrocortisone butyrate 10 nM
Experimental: • Culture medium: DMEM containing 10% FBS; • Test article: Compound 16; control drugs: triethanolamine, hydrocortisone butyrate; • Reagent: ROS assay kit (Beyotime); • Instruments: RS 2000·Pro 225 Rad Source X-ray irradiator; flow cytometer.
The cells were divided into a blank control group, a model group, a Compound 16 group, a triethanolamine group, and a hydrocortisone butyrate group, with 3 replicate wells per group. The cells were cultured in DMEM containing 10% FBS in a 37°C, 5% CO2 incubator. The blank control group and the model group were treated with the corresponding volume of blank solvent (DMSO) only. The Compound 16 group was treated with 0.5 µM Compound 16. The triethanolamine group was treated with 0.5 µM triethanolamine. The hydrocortisone butyrate group was treated with 10 nM hydrocortisone butyrate.
At the end of administration, the cells in the model group, the Compound 16 group, the triethanolamine group, and the hydrocortisone butyrate group were exposed to 8 Gy X-ray irradiation. The blank control group received no irradiation. The intracellular ROS levels in each group were detected by flow cytometry 24 h after irradiation, according to the instructions of the ROS assay kit.

CCCC(=O)O[C@]1(C(=O)CO)CC[C@H]2[C@@H]3CCC4=CC(=O)CC[C@]4(C)[C@H]3[C@@H](O)C[C@@]21C
Ear swelling inhibition rate [1]: A (greater than 70%)
Score (skin lesion score of radiation dermatitis) ([2]; end of administration): 5.5+0.8*
Number of inflammatory cells ([2]; skin, HE staining): 192 ··
ROS level [3]: 11.8 ···

Marks after values point to notes of the source that are not given here.
